Test results: ChEMBL document CHEMBL2321726, “Identification of selective inhibitors for human neuraminidase isoenzymes using C4,C7-modified 2-deoxy-2,3-didehydro-N-acetylneuraminic acid (DANA) analogues” (J Med Chem, 2013)

Biological target: T1, Sialidase-4 (Homo sapiens, UniProt Q8WWR8)
T1 sequence (Q8WWR8 whole entry): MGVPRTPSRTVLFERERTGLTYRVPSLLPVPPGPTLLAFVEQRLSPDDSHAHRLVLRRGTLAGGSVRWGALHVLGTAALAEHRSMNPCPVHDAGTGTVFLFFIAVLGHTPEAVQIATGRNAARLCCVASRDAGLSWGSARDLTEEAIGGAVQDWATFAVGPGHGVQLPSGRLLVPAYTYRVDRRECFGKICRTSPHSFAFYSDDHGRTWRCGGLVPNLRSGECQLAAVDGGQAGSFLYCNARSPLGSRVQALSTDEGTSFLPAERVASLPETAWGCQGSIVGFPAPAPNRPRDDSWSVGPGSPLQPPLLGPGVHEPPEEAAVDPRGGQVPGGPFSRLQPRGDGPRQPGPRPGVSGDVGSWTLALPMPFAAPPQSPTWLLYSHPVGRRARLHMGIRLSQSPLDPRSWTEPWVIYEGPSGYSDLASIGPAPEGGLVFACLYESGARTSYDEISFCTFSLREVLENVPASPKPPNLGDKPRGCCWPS
Test: Inhibition of human neuraminidase 4 using 4MU-NANA as substrate measured for every 30 seconds for 60 mins by fluorescence assay

`CC(=O)N[C@H]1[C@H]([C@H](O)[C@H](O)CO)OC(C(=O)O)=C[C@@H]1O` [NEU5AC2EN] was tested, and the Ki was 1000 nM.
